Reference: BindingDB's records for doi:10.1021/acs.jmedchem.6b01578 (University of Bologna, 2017)

Test: Agonist activity at recombinant human CB1 receptor expressed in CHO-K1 cells assessed as increase in cAMP accumulation after 20 mins by HTRF assay

With NC(=O)c1cccc(-c2ccc(OC(=O)NCCCCN3CCN(c4cccc(Cl)c4Cl)CC3)cc2F)c1 the EC50 was 0.015 µM.
